This note sets out measurements from patent publication US10815246B2, “Thailanstatin analogs” (priority 2017, dated 2020).

In the assay the test system is NCI-N87 human gastric cancer xenografts. In words: In vivo efficacy study, subcutaneous NCI-N87 human gastric cancer xenografts. On the set-up: species or system female Balb/c nude mice. On the technique in general: Xenograft models place foreign cells or tissue in a host animal.

With ado-trastuzumab emtansine [Kadcyla], the Avg tumor volume is 219.52 mm^3 (Group 7, 10 mg/kg single dose i.v., Study Day 6); 286.58 mm^3 (Group 7, 10 mg/kg single dose i.v., Study Day 9); 68.93 mm^3 (Group 7, 10 mg/kg single dose i.v., Study Day 15); 32.84 mm^3 (Group 7, 10 mg/kg single dose i.v., Study Day 19); 34.57 mm^3 (Group 7, 10 mg/kg single dose i.v., Study Day 21); 32.3 mm^3 (Group 7, 10 mg/kg single dose i.v., Study Day 23). In addition, the Avg tumor volume was 31.49 mm^3 (Group 7, 10 mg/kg single dose i.v., Study Day 25); 30.89 mm^3 (Group 7, 10 mg/kg single dose i.v., Study Day 27); 29.62 mm^3 (Group 7, 10 mg/kg single dose i.v., Study Day 29); 28.64 mm^3 (Group 7, 10 mg/kg single dose i.v., Study Day 31); 218.77 mm^3 (Group 8, 3 mg/kg Q4*4 i.v., Study Day 6); 262.41 mm^3 (Group 8, 3 mg/kg Q4*4 i.v., Study Day 9). The Avg tumor volume was 148.62 mm^3 (Group 8, 3 mg/kg Q4*4 i.v., Study Day 12); 61.32 mm^3 (Group 8, 3 mg/kg Q4*4 i.v., Study Day 19); 56.15 mm^3 (Group 8, 3 mg/kg Q4*4 i.v., Study Day 21); 64.71 mm^3 (Group 8, 3 mg/kg Q4*4 i.v., Study Day 23); 63.69 mm^3 (Group 8, 3 mg/kg Q4*4 i.v., Study Day 25); 60.18 mm^3 (Group 8, 3 mg/kg Q4*4 i.v., Study Day 27). The Avg tumor volume is, setting by setting: (Group 8, 3 mg/kg Q4*4 i.v., Study Day 29) 53.7 mm^3; (Group 8, 3 mg/kg Q4*4 i.v., Study Day 31) 48 mm^3. The “Effect on tumor volume subsequent to treatment (in words)” value (all dose levels and schedules tested for the substance, i.v.) was “reduced tumor volume”.
